{"source": "patent US9975946B2", "about": "“Antibodies obtainable using supramolecular constructs” (AC Immune SA, priority 2004, dated 2018)", "system": "C57BL/6 mice", "assay": "ELISA of sera from mice immunized with liposomal antigens (immunogenicity)"}
{"substance": "PEG-Aβ1-16: Aβ1-16 (SEQ ID NO: 5) with N- and C-terminal PEG-lipid, reconstituted in DMPC/DMPEA/DMPG/cholesterol liposomes with monophosphoryl lipid A (DAEFRHDSGYEVHHQK; Amyloid-beta protein 42 N- and C-terminal PEG-lipid, liposomal with MPLA; UniProt P05067 672-687, looked up, fragment)", "values": [{"measurement": "effect of additional ALUM on immunogenicity (ELISA)", "setting": "antigen + ALUM", "value": "did not enhance the immunogenicity"}, {"measurement": "immunogenicity (ELISA)", "setting": "liposomes/lipid A antigen, immunization in 2 week intervals", "value": "significantly more immunogenic than palmitoylated Aβ1-16"}]}
